MC4R antag cAMP: antagonists of human melanocortin 4 receptor (MC4R). MC4R-expressing cells, MTII-stimulated cAMP, LANCE TR-FRET. inhibition, % at 6.5 µM. 360,000 tested, 0.48% active. AID 540295;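 active = inhibition above its plate's cutoff, the mean of tested wells on that plate plus 3 SD, cut at about 29% in these data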
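System – human MC4R-expressing U2OS cells · Also added – Melanotan II · Dosing – one concentration, 6.5 µM nominal · Timing – 30-min compound, 1-h challenge, 1-h detection, room temperature · Measured by – Eu-cAMP/anti-cAMP TR-FRET, emission 671 nm · Replicates – singlicate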
MC4R ag barr: agonists of human melanocortin 4 receptor (MC4R) beta-arrestin | P32245 | U2OS MC4R beta-arrestin complementation, luminescence; percent of melanotan II response, DMSO zero | activation, % at 8.9 µM | 360,000 tested, 0.98% active;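 active = activation above a per-plate cutoff, the mean activation of sample wells on that plate plus 3 SD, cut at about 8% in these data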
ALR H2O2 inh: inhibitors of human ALR sulfhydryl oxidase, primary screen, biochemical, H2O2 detection, HRP-luminol luminescence, single point. inhibition, % (concentration not given with the values). 290,000 compounds, 3.8% hits. purified ALR, DTT oxidation. AID 485317, 2010;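 active means mean and each replicate at 75% or more; inconclusive means only one of the two met; inactive means neither met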;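 further: stock transfer was 7.5 nL into about 7.5 µL; 0% = neutral wells and 100% = wells with inactivated enzyme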
UUG fidelity: alters start codon recognition fidelity in yeast; AID 602363; activity score, % at 18.7 µM; 350,000 tested, 0.13% active; S. cerevisiae UUG-firefly luciferase reporter, luminescence/redox ratio;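 active means replicate mean at a twofold rise or more, about +100% in these data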;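 further: firefly luciferase made from a UUG start codon reports start codon fidelity; reporter light over untreated wells divided by growth signal over untreated wells; some hits fall short of that in this replicate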
NALP1 yeast inh: inhibitors of NALP1 inflammasome in yeast; inhibition, % at 10 µM; S. cerevisiae NALP1/ASC/caspase-1 growth, X-gal OD620, 72 h; 280,000 tested, 0.61% active; AID 2071; in the data active = inhibition mostly above about 24%, no sharp cut-off; inactive = mostly below about 32%
HDAC3 inhib: human HDAC3 inhibition. 320,000 tested, 0.15% active. inhibition, % at 8.3 µM. recombinant HDAC3, fluorogenic peptide/trypsin coupled, fluorescence. O15379; in the data active = inhibition above about 26%, passing the limit was not always enough; inconclusive = no clear call, values can overlap the other calls
MC4R barr conf: human MC4R beta-arrestin agonism confirmation; shares compounds with MC4R ag barr; U2OS MC4R beta-arrestin recruitment, luminescence; scaled DMSO 0%, Melanotan II 100%; activation, % at 8.9 µM; 2,400 tested, 31% active; AID 602192;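 active = mean activation across replicates above the hit cutoff set in the earlier primary screen, cut at about 8% in these data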
MOR DOR agonist: counter-screen for MC4R agonists: agonists of mu-delta opioid heterodimer; activation, % at 9.2 µM; U2OS PathHunter beta-arrestin, beta-gal luminescence; percent of deltorphin B response, DMSO zero; 2,400 tested, 5.8% active; shares compounds with MC4R ag barr;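 active = mean activation across replicates exceeds the hit threshold derived in the earlier primary screen, cut at about 18% in these data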
Numbers stand for hits; - = inactive; ? = inconclusive; . = no result. Most compounds without a hit are left out; they make up all but 4.2% or so of the library.

SMILES	MC4R antag cAMP	MC4R ag barr	ALR H2O2 inh	UUG fidelity	NALP1 yeast inh	HDAC3 inhib	MC4R barr conf	MOR DOR agonist
S=c1[nH]nc(-c2cc(-c3ccccc3)n[nH]2)n1/N=C/c1ccc(Br)s1	-	33	-	.	-	-	-	-
Cc1ccsc1/C=N/n1c(-c2cc(-c3ccccc3)n[nH]2)n[nH]c1=S	-	12	-	.	-	?	-	-
S=c1[nH]nc(-c2cc(-c3ccccc3)n[nH]2)n1/N=C/c1c(Cl)cccc1Cl	-	-	-	.	-	-	.	.
Cc1ccc(-c2n[nH]c(=S)n2/N=C/c2sccc2C)cc1	-	-	-	.	-	-	.	.
Cc1ccccc1/C=N/n1c(-c2cc(-c3ccccc3)n[nH]2)n[nH]c1=S	-	13	-	.	.	-	-	-
C[C@@H]1CN([C@H](C)CO)C(=O)Cc2cc(NC(=O)Nc3ccc(F)cc3)ccc2O[C@H]1CN(C)C(=O)Nc1ccc(C(F)(F)F)cc1	.	.	.	-	.	.	.	.
CO[C@H]1CN(C)C(=O)c2cc(NS(=O)(=O)c3ccc(C)cc3)ccc2OC[C@@H](C)NC[C@H]1C	.	.	.	-	.	.	.	.
N=C(N)c1ccc(N=Nc2c(O)ccc3c2[nH]c2ccccc23)cc1	-	10.0	.	.	.	.	10	-
C[C@H](CO)N1C[C@H](C)[C@@H](CN(C)C(=O)NC2CCCC2)Oc2ncc(C#CC3CCCCC3)cc2C1=O	.	.	.	-	.	.	.	.
CO[C@@H]1CN(C)C(=O)c2cc(NC(=O)C3CCCC3)ccc2OC[C@H](C)N(CC2CC2)C[C@H]1C	.	.	.	-	.	.	.	.
CC1CCc2sc(C(=O)OCC(=O)NCc3ccc(F)cc3)cc2C1 (stereo not drawn)	-	13	.	.	-	-	-	-
C[C@@H]1CCCCO[C@H](CN(C)S(=O)(=O)c2cccs2)[C@@H](C)CN([C@H](C)CO)C(=O)c2cc(NC(=O)Nc3ccc(C(F)(F)F)cc3)ccc2O1	.	.	.	-	.	.	.	.
CC(NC(C(=O)c1ccccc1)c1ccccc1)c1ccccc1 (stereo not drawn)	-	12	.	-	.	.	-	-
COc1ccc(-c2cc(C(=O)Nc3ccccc3SC)no2)cc1OC	-	39	-	-	-	-	-	-
O=C(Nc1cnn(C23CC4CC(CC(C4)C2)C3)c1)c1cc(-c2ccccc2)on1	-	12	-	-	-	-	-	-
COc1ccc(-c2cc(C(=O)Nc3cnn(Cc4ccccc4C)c3)no2)cc1OC	-	12	-	-	-	-	-	-
Cc1ccc(-c2cc(C(=O)Nc3cnn(C45CC6CC(CC(C6)C4)C5)c3)no2)cc1	-	-	.	-	-	-	.	.
Cc1noc(C)c1NC(=O)N[C@@H]1CC[C@H](CCNC(=O)C2CCC2)O[C@H]1CO	.	.	.	-	.	.	.	.
O=C(Nc1ccc(C(=O)OC[C@@H]2CCCN3CCCC[C@H]23)cc1)c1cccc(Br)c1	-	12	-	.	-	-	-	-
Cc1noc(C)c1S(=O)(=O)Nc1ccc2c(c1)C(=O)N([C@H](C)CO)C[C@H](C)[C@@H](CN(C)Cc1ccc3c(c1)OCO3)OCCCC[C@H](C)O2	.	.	.	-	.	.	.	.
C[C@@H]1CN([C@H](C)CO)C(=O)c2cccc(NC(=O)C3CCOCC3)c2O[C@H]1CN(C)C(=O)Nc1ccc(F)cc1	.	.	.	-	.	.	.	.
O=C(Nc1ccc(Cl)cc1)OCc1ccccn1	-	-	.	-	-	-	.	.
Cc1ccc(NC(=O)OCc2cccs2)cc1	.	.	-	.	-	-	.	.
O=C(Nc1ccc(Cl)cc1)OCc1cc(-c2ccccc2Cl)on1	-	11	-	.	-	-	8.6	-
Cc1ccc(NC(=O)OCc2cc(-c3ccccc3)on2)cc1	-	11	-	.	-	-	-	-
Cc1noc(C)c1NC(=O)N(C)C[C@H]1Oc2c(NC(=O)NC3CCCCC3)cccc2C(=O)N([C@H](C)CO)C[C@@H]1C	.	.	.	-	.	.	.	.
O=C(Nc1cc(Cl)ccn1)C1(c2ccccc2)CC1(Cl)Cl (stereo not drawn)	-	11	-	-	-	?	-	-
COc1cc(C)c(/C=C(\C#N)C(=O)Nc2cccc(C)c2)cc1C(C)C	-	13	-	.	-	-	-	-

Assay outcomes (PubChem)
